The text below walks through data of publication PMC9698607, “Dual Functionalized Liposomes for Selective Delivery of Poorly Soluble Drugs to Inflamed Brain Regions” (Pharmaceutics, 2022).

For this data set, the system named is hCMEC/D3 cells.

Consider TRITC-dextran, for which the “EP to TRITC-dextran” value was 7.32 ± 0.95 × 10^−5 cm/min.
